Laboratory results published in ChEMBL document CHEMBL4376804, “Review of Transient Receptor Potential Canonical (TRPC5) Channel Modulators and Diseases” (J Med Chem, 2019).

Chains of the proteins cited; added tags and fusions are not shown. Lines headed by an entry give the natural chain unless they say otherwise; changes in a name come on top.
UniProt P48995: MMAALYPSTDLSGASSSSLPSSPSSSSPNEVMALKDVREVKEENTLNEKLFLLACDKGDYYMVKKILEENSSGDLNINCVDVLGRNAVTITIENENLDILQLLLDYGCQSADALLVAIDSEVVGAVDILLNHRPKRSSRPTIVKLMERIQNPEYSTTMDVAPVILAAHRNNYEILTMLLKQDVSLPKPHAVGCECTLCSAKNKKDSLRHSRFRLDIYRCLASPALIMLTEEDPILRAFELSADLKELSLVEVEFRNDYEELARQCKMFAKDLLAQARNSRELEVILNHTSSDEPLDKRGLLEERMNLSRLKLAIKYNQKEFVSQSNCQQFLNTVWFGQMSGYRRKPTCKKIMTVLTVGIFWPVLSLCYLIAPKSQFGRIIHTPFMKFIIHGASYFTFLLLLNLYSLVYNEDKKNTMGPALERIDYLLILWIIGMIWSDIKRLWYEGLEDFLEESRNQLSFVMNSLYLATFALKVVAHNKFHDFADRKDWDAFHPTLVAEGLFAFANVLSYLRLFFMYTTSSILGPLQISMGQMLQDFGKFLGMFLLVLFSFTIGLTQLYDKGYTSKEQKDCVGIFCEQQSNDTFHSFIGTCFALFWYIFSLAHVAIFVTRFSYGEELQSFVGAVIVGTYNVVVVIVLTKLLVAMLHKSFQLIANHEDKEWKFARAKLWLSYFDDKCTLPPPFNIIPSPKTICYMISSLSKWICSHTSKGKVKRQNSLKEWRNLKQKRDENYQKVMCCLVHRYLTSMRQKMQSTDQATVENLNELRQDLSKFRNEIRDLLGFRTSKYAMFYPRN

Key:
Conditions in all cases: HEK293, 5 uM
[1] = target: TRPC1/TRPC5 (Homo sapiens) (UniProt Q9UL62+P48995)
[2] = target: T1, Short transient receptor potential channel 5 (Homo sapiens) (UniProt Q9UL62)
T1 sequence (whole entry): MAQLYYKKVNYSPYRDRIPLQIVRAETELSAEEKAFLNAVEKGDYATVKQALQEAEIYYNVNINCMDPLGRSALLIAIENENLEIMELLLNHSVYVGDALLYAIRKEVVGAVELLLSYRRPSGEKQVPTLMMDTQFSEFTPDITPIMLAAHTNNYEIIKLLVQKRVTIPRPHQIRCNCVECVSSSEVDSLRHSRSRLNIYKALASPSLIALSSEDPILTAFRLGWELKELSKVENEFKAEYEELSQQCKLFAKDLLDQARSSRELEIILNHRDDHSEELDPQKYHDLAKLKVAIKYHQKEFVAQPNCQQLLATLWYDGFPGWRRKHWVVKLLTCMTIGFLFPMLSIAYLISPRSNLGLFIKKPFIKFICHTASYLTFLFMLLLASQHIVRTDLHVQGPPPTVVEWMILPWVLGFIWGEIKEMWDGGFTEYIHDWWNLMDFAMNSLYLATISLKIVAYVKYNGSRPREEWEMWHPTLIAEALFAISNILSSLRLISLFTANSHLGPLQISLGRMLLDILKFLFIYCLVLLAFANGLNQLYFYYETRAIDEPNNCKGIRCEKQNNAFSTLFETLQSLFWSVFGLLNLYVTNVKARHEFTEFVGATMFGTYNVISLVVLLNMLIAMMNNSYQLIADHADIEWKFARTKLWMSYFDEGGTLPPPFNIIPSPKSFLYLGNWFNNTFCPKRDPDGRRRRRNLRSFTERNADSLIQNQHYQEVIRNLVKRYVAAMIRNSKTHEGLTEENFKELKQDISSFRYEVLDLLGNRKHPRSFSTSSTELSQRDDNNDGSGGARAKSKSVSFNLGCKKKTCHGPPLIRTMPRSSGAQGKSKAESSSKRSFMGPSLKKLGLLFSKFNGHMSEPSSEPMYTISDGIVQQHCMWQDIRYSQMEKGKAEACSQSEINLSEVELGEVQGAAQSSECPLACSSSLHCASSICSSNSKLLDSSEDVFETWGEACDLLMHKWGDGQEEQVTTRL

[3] = target: T2, Short transient receptor potential channel 4 (Homo sapiens) (UniProt Q9UBN4)
T2 sequence (whole entry): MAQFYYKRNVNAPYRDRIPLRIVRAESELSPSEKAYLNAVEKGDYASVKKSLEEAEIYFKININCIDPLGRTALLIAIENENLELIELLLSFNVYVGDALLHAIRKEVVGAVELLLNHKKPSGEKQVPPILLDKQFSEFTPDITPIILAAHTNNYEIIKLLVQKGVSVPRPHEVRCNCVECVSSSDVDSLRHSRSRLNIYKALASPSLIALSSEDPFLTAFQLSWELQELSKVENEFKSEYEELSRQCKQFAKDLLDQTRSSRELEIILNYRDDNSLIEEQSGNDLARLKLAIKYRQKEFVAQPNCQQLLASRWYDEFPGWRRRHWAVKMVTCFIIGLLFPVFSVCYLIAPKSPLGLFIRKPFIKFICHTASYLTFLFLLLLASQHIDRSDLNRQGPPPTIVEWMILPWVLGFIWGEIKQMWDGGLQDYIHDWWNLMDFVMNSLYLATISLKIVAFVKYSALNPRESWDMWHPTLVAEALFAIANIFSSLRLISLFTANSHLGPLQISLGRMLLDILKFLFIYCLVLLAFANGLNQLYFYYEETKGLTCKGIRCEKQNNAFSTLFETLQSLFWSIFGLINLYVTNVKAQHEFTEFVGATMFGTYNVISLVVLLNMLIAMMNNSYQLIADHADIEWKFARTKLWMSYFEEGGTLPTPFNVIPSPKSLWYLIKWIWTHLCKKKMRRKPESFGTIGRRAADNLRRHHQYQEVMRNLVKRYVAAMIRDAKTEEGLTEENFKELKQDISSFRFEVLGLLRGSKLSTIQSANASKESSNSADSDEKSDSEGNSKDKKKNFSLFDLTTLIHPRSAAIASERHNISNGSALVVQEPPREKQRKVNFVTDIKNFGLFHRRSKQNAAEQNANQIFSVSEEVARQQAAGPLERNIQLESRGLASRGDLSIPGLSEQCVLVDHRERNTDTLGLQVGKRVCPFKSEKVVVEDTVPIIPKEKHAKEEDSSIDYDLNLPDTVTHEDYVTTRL

Measured: inhibition

O=c1c(O)c(-c2ccccc2Br)oc2cc(O)cc(O)c12
65%: all assays above
